Test results reported in US20240058466A1.

Molecular target: recombinant human soluble ECD of CD64/FCGRIA (human) (UniProt P12314)
Assay: ELISA: plate coated with recombinant human CD64/FcγRI ECD, antibody titrated, goat anti-human Fc-HRP, OD650

Row | EC50 (read off the curve) [µg/mL] | Substance
1 | 4 | Anti-EGFR Mab No. 2, L234A, L235A (antibody; other documents disagree on this pair)
2 | 0.04 | Anti-EGFR Mab No. 2, wild-type (antibody; other documents disagree on this pair)
